ChEMBL document CHEMBL1142711 (J Med Chem, 2005)

The chains behind the UniProt entries cited, without tags or fusion partners.
UniProt P33535, whole entry: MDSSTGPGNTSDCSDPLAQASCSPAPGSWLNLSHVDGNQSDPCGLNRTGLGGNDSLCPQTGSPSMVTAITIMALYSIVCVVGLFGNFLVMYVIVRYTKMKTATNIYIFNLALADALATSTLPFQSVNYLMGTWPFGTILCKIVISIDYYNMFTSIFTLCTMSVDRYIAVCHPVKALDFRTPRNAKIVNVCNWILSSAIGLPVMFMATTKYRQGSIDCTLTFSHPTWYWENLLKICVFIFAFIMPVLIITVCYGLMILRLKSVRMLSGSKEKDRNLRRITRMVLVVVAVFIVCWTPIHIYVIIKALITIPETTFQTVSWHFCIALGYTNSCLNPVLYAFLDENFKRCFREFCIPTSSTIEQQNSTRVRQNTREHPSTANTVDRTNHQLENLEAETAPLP

Biological target: Mu-type opioid receptor (Rattus norvegicus, UniProt P33535)
Assay: Inhibition of [3H]diprenorphine binding to rat Opioid receptor mu 1 expressed in C6 cells
Type: cell-based
How it was run: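 Competition binding with [3H]diprenorphine on rat MOR or DOR expressed in C6 cells and human KOR in CHO cells. Mean of three experiments, each in duplicate.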

For `Oc1ccc2c3c1O[C@H]1c4[nH]c5c(c4C[C@@]4(O)[C@@H](C2)N(CC2CC2)CC[C@]314)C[C@@]1(O)[C@H]2Cc3ccc(O)c4c3[C@@]1(CCN2CC1CC1)[C@H]5O4` [NORBINALTORPHIMINE], which Ki is on record?
The Ki was 1.2 nM.
